Reference: patent US8278319B2, “Substituted spiroamine compounds” (Gruenenthal GmbH, priority 2008, dated 2012)

By UniProt entry, the sequences of proteins in these tests, tags left out.
UniProt P35372, whole entry, looked up: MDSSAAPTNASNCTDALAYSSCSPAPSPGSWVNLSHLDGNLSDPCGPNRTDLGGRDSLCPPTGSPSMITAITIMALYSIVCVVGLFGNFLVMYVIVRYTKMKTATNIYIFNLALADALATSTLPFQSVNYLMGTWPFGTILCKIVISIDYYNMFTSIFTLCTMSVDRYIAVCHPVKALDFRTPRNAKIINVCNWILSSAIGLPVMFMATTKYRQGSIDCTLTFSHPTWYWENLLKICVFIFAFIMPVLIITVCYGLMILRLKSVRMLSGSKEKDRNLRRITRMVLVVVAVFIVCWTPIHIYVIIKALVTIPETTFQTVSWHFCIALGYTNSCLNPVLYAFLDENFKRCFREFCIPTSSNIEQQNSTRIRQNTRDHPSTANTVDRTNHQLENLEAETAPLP

Molecular target: human μ-opiate receptor (Homo sapiens, UniProt P35372)
Assay: Affinity to the human μ-opiate receptor, [3H] naloxone displacement (SPA)
Conditions: test substance 1 μM; inhibition of specific binding of [3H] naloxone; CHO-K1 membrane preparation

Compound	μ-Opioid receptor [1 μM] % Inhibition [%]
O=C(CC1CCCCN1S(=O)(=O)c1cccc(C(F)(F)F)c1)N1CCC2(CC1)CCC(c1cccc(F)c1)(N1CCCC1)CC2 (stereo not shown) [CC-01, 1-[3-(3-Fluorophenyl)-3-pyrrolidin-1-yl-9-azaspiro[5.5]undecan-9-yl]-2-[1-[[3-(trifluoromethyl)phenyl]sulfonyl]-piperidin-2-yl]-ethanone]	12
COc1cc(C)c(S(=O)(=O)N2CCCCC2CCCC(=O)N2CCC3(CC2)CCC(c2cccc(F)c2)(N2CCCC2)CC3)c(C)c1 (stereo not shown) [CC-02, 1-[3-(3-Fluorophenyl)-3-pyrrolidin-1-yl-9-azaspiro[5.5]undecan-9-yl]-4-[1-[(4-methoxy-2,6-dimethyl-phenyl)sulfonyl]-pipereridin-2-yl]-butan-1-one]	47
COc1cc(C)c(S(=O)(=O)N2CCCCC2COCC(=O)N2CCC3(CC2)CCC(c2cccc(F)c2)(N2CCCC2)CC3)c(C)c1 (stereo not shown) [CC-03, 1-[3-(3-Fluorophenyl)-3-pyrrolidin-1-yl-9-azaspiro[5.5]undecan-9-yl]-2-[[1-[(4-methoxy-2,6-dimethyl-phenyl)sulfonyl]-piperidin-2-yl]-methoxy]-ethanone]	37
COc1cc(C)c(S(=O)(=O)N(CCOCC(=O)N2CCC3(CC2)CCC(c2cccc(F)c2)(N2CCCC2)CC3)C2CC2)c(C)c1 [CC-04, N-Cyclopropyl-N-[2-[2-[3-(3-fluorophenyl)-3-pyrrolidin-1-yl-9-azaspiro[5.5]undecan-9-yl]-2-oxo-ethoxy]-ethyl]-4-methoxy-2,6-dimethyl-benzenesulfonic acid amide]	78
Cc1cccc(Cl)c1S(=O)(=O)N1CCCCC1COCC(=O)N1CCC2(CC1)CCC(c1cccc(F)c1)(N1CCCC1)CC2 (stereo not shown) [CC-05, 2-[[1-[(2-Chloro-6-methyl-phenyl)sulfonyl]-piperidin-2-yl]-methoxy]-1-[3-(3-fluorophenyl)-3-pyrrolidin-1-yl-9-azaspiro[5.5]undecan-9-yl]-ethanone]	54
Cc1cccc(Cl)c1S(=O)(=O)N(CCOCC(=O)N1CCC2(CC1)CCC(c1cccc(F)c1)(N1CCCC1)CC2)C1CC1 [CC-06, 2-Chloro-N-cyclopropyl-N-[2-[2-[3-(3-fluorophenyl)-3-pyrrolidin-1-yl-9-azaspiro[5.5]undecan-9-yl]-2-oxo-ethoxy]-ethyl]-6-methyl-benzenesulfonic acid amide]	77
Cc1cc(S(=O)(=O)N2CCCCC2CCC(=O)N2CCC3(CC2)CCC(c2cccc(F)c2)(N2CCCC2)CC3)c(C)cc1Cl (stereo not shown) [CC-07, 3-[1-[(4-Chloro-2,5-dimethyl-phenyl)sulfonyl]-piperidin-2-yl]-1-[3-(3-fluorophenyl)-3-pyrrolidin-1-yl-9-azaspiro[5.5]undecan-9-yl]-propan-1-one]	26
O=C(CC(NS(=O)(=O)c1ccc2ccccc2c1)c1ccccc1)N1CCC2(CC1)CCC(c1cccc(F)c1)(N1CCCC1)CC2 (stereo not shown) [CC-08, N-[3-[3-(3-Fluorophenyl)-3-pyrrolidin-1-yl-9-azaspiro[5.5]undecan-9-yl]-3-oxo-1-phenyl-propyl]-naphthalene-2-sulfonic acid amide]	86
Cc1cccc(Cl)c1S(=O)(=O)N(CCOCC(=O)N1CCC2(CC1)CCC(c1cccs1)(N(C)C)CC2)C1CC1 [CC-09, 2-Chloro-N-cyclopropyl-N-[2-[2-(3-dimethylamino-3-thiophen-2-yl-9-azaspiro[5.5]undecan-9-yl)-2-oxo-ethoxy]-ethyl]-6-methyl-benzenesulfonic acid amide]	102
CN(C)C1(c2cccs2)CCC2(CCN(C(=O)CC3CCCCN3S(=O)(=O)c3cccc(C(F)(F)F)c3)CC2)CC1 (stereo not shown) [CC-10, 1-(3-Dimethylamino-3-thiophen-2-yl-9-azaspiro[5.5]undecan-9-yl)-2-[1-[[3-(trifluoromethyl)phenyl]sulfonyl]-piperidin-2-yl]-ethanone]	102
